Data set [1] concerns T cells of the four subsets used in the in vitro analyses. Particulars: concentrations of SDF-1 used.
Data set [2] relates to murine PBMC or CD3+ cells. Particulars: concentrations of SDF-1 used.

On to SDF-1α, for which, in data set [1], the “toxicity on T cells” value is recorded as “no demonstrable toxicity”. Besides, in data set [2], the apoptosis result is on record as “no evidence of apoptosis”.

The values above are taken from US7775469B2, “Purposeful movement of human migratory cells away from an agent source” (The General Hospital Corporation, priority 1999, dated 2010).
